Source: patent US7572376B2, “Process for producing 1,3-propanediol” (Tate & Lyle Ingredients Americas, Inc., priority 2003, dated 2009)

How the values were obtained:
[1] = solvent screen: PDO mixture with single solvents, distribution between solvent and aqueous phase; assay type: physicochemical; conditions: 30° C.
[2] = water dissolving in solvent extractant TBP; conditions: at certain temperatures used
[3] = hydrophobic parameter log P of solvents and contaminants; conditions: log P=[solute]octanol/[solute]water; value marked estimated
[4] = conc. in solvent phase / conc. in aqueous phase, aqueous solution 46% w/v PDO, 3.5% glycerol, […] glucose

CCCCOP(=O)(OCCCC)OCCCC
Distribution Coefficient Glucose [1, 4]: 0.016 | Distribution Coefficient Glycerol [1, 4]: 0.077 | Distribution Coefficient PDO [1, 4]: 0.203 | Selectivity PDO/Glycerol ([1]; distribution coefficient of PDO divided by that of glycerol): 2.65 | water that can dissolve in TBP [2]: About 6% | hydrophobic parameter log P (estimated) [3]: 2
